From patent US7202260B2, “VEGFR-2 and VEGFR-3 inhibitory anthranilamide pyridones” (Schering AG, priority 2003, dated 2007)

Protein sequences, listed by entry. Tags and fused reporters are not part of them. Residues count along the entry.
UniProt P35968, 20-1356 limits assumed: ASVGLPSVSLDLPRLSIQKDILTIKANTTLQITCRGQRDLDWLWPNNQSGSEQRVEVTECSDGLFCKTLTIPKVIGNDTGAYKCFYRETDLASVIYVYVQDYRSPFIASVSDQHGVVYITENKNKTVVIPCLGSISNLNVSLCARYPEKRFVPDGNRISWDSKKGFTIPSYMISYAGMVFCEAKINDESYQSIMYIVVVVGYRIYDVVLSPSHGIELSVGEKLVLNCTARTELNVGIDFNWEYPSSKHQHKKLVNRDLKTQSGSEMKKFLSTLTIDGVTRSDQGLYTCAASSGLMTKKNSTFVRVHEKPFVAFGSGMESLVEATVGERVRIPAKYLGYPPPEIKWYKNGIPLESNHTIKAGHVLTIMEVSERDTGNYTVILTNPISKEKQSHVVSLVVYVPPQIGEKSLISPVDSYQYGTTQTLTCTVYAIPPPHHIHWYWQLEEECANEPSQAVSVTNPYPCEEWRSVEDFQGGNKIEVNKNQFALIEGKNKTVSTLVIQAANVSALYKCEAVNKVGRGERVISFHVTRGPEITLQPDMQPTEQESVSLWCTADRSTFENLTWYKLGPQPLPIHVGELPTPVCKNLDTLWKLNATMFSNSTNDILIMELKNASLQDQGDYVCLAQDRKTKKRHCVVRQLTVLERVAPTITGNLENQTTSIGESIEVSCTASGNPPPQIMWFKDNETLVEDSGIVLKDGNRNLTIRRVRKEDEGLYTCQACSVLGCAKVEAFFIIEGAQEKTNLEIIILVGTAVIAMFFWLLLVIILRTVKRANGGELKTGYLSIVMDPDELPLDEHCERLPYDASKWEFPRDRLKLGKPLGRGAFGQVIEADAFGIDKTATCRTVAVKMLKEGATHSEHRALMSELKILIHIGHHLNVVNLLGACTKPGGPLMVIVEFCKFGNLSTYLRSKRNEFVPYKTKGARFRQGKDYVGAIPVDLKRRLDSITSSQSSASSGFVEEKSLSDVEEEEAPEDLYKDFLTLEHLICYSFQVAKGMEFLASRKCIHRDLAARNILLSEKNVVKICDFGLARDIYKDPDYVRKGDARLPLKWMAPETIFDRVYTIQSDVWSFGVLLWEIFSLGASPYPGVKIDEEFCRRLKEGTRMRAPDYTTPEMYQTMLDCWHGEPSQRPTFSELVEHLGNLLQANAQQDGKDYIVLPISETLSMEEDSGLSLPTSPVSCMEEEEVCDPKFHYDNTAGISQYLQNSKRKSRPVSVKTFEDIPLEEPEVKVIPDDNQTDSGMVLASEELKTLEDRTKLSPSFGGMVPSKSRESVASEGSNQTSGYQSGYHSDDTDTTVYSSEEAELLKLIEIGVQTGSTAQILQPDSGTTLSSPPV
UniProt P08684, whole entry: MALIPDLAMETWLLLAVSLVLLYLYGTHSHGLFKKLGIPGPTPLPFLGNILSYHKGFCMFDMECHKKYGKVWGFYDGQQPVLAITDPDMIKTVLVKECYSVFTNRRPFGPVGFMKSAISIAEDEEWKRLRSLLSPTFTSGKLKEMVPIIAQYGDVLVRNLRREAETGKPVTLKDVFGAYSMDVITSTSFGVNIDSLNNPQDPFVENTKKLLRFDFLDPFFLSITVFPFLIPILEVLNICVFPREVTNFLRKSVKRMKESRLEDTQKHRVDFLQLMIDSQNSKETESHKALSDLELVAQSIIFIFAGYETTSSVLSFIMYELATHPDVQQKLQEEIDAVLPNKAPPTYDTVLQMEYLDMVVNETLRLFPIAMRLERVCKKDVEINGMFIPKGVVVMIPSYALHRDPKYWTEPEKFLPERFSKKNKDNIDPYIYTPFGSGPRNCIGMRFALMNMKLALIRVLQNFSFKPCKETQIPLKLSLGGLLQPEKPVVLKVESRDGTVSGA

Key:
VEGFR II (KDR) = VEGFR II (KDR) (Homo sapiens, UniProt P35968); test: Inhibition of the KDR kinase activity (33P-ATP, poly-(Glu4Tyr) filter assay); conditions: read-out: VEGFR II (KDR) kinase-inhibition IC50
Method: • Stock Solutions • Stock solution A: 3 mmol of ATP in water, pH 7.0 (−70° C.) • Stock solution B: g-33P-ATP 1 mCi/100 μl • Stock solution C: poly-(Glu4Tyr) 10 mg/ml in water • Solution for Dilutions • Substrate solvent: 10 mmol of DTT, 10 mmol of manganese chloride, 100 mmol of magnesium chloride • Enzyme solution: 120 mmol of tris/HCl, pH 7.5, 10 μM of sodium vanadium oxide Sample Application 1 Inhibition of the KDR- and FLT-1 Kinase Activity in the Presence of the Compounds According to the Invention
In a microtiter plate (without protein binding) that tapers to a point, 10 μl of substrate mix (10 μl of volume of ATP stock solution A+25 μCi of g-33P-ATP (about 2.5 μl of stock solution B)+30 μl of poly-(Glu4Tyr) stock solution C+1.21 ml of substrate solvent), 10 μl of inhibitor solution (substances corresponding to the dilutions, 3% DMSO in substrate solvent as a control) and 10 μl of enzyme solution (11.25 μg of enzyme stock solution (KDR, FLT-1 or FLT-4 kinase) are added at 4° C. in 1.25 ml of enzyme solution (dilute). It is thoroughly mixed and incubated for 10 minutes at room temperature. Then, 10 μl of stop solution (250 mmol of EDTA, pH 7.0) is added, mixed, and 10 μl of the solution is transferred to a P 81 phosphocellulose filter. […] The filter paper is dried, coated with Meltilex, and measured in a microbeta counter. […]

[1] = target: Cytochrome P450 isoenzyme 3A4 (Homo sapiens, UniProt P08684); test: Cytochrome P450 inhibition (Crespi et al.); conditions: read-out: Inhibition of Cyp 450 3A4 (IC50); baculovirus/insect cell-expressed human isoenzyme 3A4
Method: Cytochrome P450 Inhibition
The Cytochrome P450 inhibition was performed according to the publication of Crespi et al. (Anal. Biochem., 248, 188–190 (1997)) with use of the baculovirus/insect cell-expressed and human Cytochrome P450 isoenzyme (3A4).

SMILES | IC50 (VEGFR II (KDR)) | IC50 [1]
O=C(Nc1cccc(C(F)(F)F)c1)c1ccccc1NCc1ccc(=O)[nH]c1 | 25 nM | 1.5 µM
O=C(Nc1cccc(C(F)(F)F)c1)c1ccccc1NCc1cc[nH]c(=O)c1 | 180 nM | 4.6 µM
